# Laboratory results reported in PubChem BioAssay AID2094 (Broad Institute, 2009).
# This is a selection; strong and weak results do not stand in their true shares. Some tests of the compounds listed are not included; inactive here does not mean inactive elsewhere. Calls of active or inactive are those of the source. No stated cut-off is given here; in the data, active means activity change below about -75% (passing the limit was not always enough); inconclusive means no clear call, values can overlap the other calls.
# Test: Vibrio harveyi AI-2 quorum sensing modulators, primary screen, JMH597 strain, luminescence/OD600 ratio (AID 2094)
# Settings: Vibrio harveyi JMH597 AI-2 luminescence/OD600 ratio, 9 h; at 7.5 µM; stronger effect = lower value; 0 = neutral-control median; strain lacks LuxN and CqsS sensors
row,SMILES,activity change
1,CN1[C@@H]2CC[C@H]1CC(OC(=O)C(O)(c1ccccc1)c1ccccc1)C2 (some centres undefined),inactive: 7.58%
2,O=C(NCC1(N2CCCCC2)CCCCC1)c1cc([N+](=O)[O-])ccc1Cl,inactive: 22.1%
3,Cc1ccc(C(=O)NCC2(N3CCCCC3)CCCCC2)cc1,inactive: 17.7%
4,COc1cc(SC)ccc1C(=O)NCC1(N(C)C)CCCCC1,inactive: 17.1%
5,CCN(CC)CC(C)C(C)OC(=O)C(O)(c1ccccc1)c1ccccc1 (centres undefined),inactive: -0.527%
6,CC(C)N1C(=O)CC2(CCN(CCOC(=O)C(O)(c3ccccc3)c3ccccc3)CC2)C1=O,inactive: 36.3%
7,CN(C)C1CCCC1OC(=O)C(O)(c1ccccc1)c1ccccc1 (centres undefined),inactive: -1.42%
8,CN(C)c1ccc(C(=O)NCC2(N(C)C)CCCCC2)cc1,inactive: 10.7%
9,Cc1ccccc1C(=O)NCC1(N2CCCCC2)CCCCC1,inactive: 1.11%
10,COc1ccc(C(=O)NCC2(N(C)C)CCCCC2)cc1,inactive: 20%
11,O=C(NCC1(N2CCCCC2)CCCCC1)c1cccc(Br)c1,inactive: 19.2%
12,Cc1cc(C(=O)NCC2(N3CCCCC3)CCCCC2)ccc1[N+](=O)[O-],inactive: 4.71%
13,CCN1CCCC(OC(=O)C2(O)c3ccccc3C=Cc3ccccc32)C1 (centres undefined),inactive: 23.2%
14,O=C(NCC1(N2CCCCC2)CCCCC1)c1cc(F)c(F)cc1Cl,inactive: 11.4%
15,C=CCN1CCN(CCOC(=O)C(O)(c2ccccc2)c2ccccc2)CC1,inactive: 11.5%
16,COc1cc(C(=O)NCC2(N(C)C)CCCCC2)c([N+](=O)[O-])cc1OC,inactive: 20%
17,CN(C)C1(CNC(=O)c2ccc(Br)cc2)CCCCC1,inactive: 18.2%
18,O=C(NCC1(N2CCCCC2)CCCCC1)c1cccc(Cl)c1,inactive: 28.1%
19,COc1ccc(Cl)cc1C(=O)NCC1(N(C)C)CCCCC1,inactive: -1.38%
20,COc1cccc(C(=O)NCC2(N3CCCCC3)CCCCC2)c1,inactive: 34.7%
21,O=C(OC1CN2CCC1CC2)C(CO)(c1ccccc1)c1ccccc1 (centres undefined),inactive: 1.02%
22,CC(C)Oc1ccc(C(=O)NCC2(N(C)C)CCCCC2)cc1,inactive: 17.8%
23,CN(C)c1cccc(C(=O)NCC2(N(C)C)CCCCC2)c1,inactive: 13.9%
24,COc1ccc(Br)c(C(=O)NCC2(N3CCCCC3)CCCCC2)c1,inactive: 30.5%
